# Assay results from article PMC6445226, “Kinetic study on the inhibition of xanthine oxidase by acylated derivatives of flavonoids synthesised enzymatically” (Journal of Enzyme Inhibition and Medicinal Chemistry, 2017).
# Test: Partition coefficient determination in octanol/water (k)
# Type: physicochemical
# Conditions: octan-1-ol/water, 50 μM sample, UHPLC-MS; SD <0.01
# Procedure: The partition coefficients of the untreated flavonoids in octanol/water (k) were analysed to determine their degrees of lipophilicity. In test tubes, 2.0 ml of a solution of the sample with a concentration of 50 μM were added to 2.0 ml of octanol saturated with water. The mixture was shaken for 1 min and then centrifuged for 15 min at 3000 rpm. […] The partition coefficient was obtained using the equation: k=Co/Ca×r; where Co = test compound concentration in octanol, Ca = test compound concentration in aqueous solution, r = ratio of the volumes of the oily and the aqueous phases.
row,Substance,Partition coefficient (k)
1,Rutin decanoate,0.95
2,Naringin octanoate,0.86
